# Paper PMC3095642, “New Synthetic Thrombin Inhibitors: Molecular Design and Experimental Verification” (PLoS ONE, 2011)
# Target: T1, Human thrombin (Homo sapiens, UniProt P00734)
# T1 construct: Human thrombin (8.3 mg/ml) was obtained from Hematologic Technologies Inc; purchased Hematologic Technologies Inc. (Essex Junction, VT, USA)
# Assay: Thrombin induced hydrolysis of specific substrates in buffer system
# Type: biochemical
# Settings: chromogenic substrate Tosyl-Gly-Pro-Arg-p-nitroanilide; calculated assuming competitive inhibition, KM 9.44 µM
# Description: The kinetics of thrombin inhibition was determined from the hydrolysis reaction of a specific substrate by thrombin in the presence of the tested substances. The chromogenic substrate (Tosyl-Gly-Pro-Arg-p-nitroanilide) or fast fluorogenic substrate (BOC-Ala-Pro-Arg-AMC) was used.
# Plate wells were filled with 20 mM HEPES (pH 8.0) containing 140 mM NaCl and 0.1% polyethylene glycol (molecular weight 6000 Da). Thereafter, substrate was sequentially added to each well (final concentration, 100 µM), followed by the substance being tested (to a final concentration that was varied) and thrombin (final concentration, 0.2 nM). The hydrolysis rate was monitored spectrophotometrically at 405 nm (absorption maximum of the reaction product – p-nitroaniline), or fluorometrically (λex = 380 nm; λem = 440 nm for fluorescent reaction product 7-amino-4-methylcoumarine).
# The initial rate was determined as the slope of the linear portion of the kinetic curve over the first 10 to 20 min of measurement. The inhibitory effect was expressed as the percentage reduction of the initial hydrolysis rate. The reaction rate in the absence of inhibitor was taken as 100%. Each result is the mean of two parallel determinations.
# The inhibitor concentration was determined decreasing hydrolysis rate to 50% (IC50). […]
compound,measurement,value
"CC1CNc2c(cccc2S(=O)(=O)N[C@@H](CCCNC(=N)N)C(=O)N2CC[C@@H](C)C[C@@H]2C(=O)O)C1 (stereo partly shown) [Argatroban, reference compound]",Ki,39 nM
